In PubChem BioAssay AID2302 (GlaxoSmithKline (GSK), 2010):
This is a selection; strong and weak results do not stand in their true shares. The source made the active and inactive calls.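 The calls were made as follows: active = growth inhibition above 50% at the single 2 µM test dose, taken to imply half-maximal potency below 2 µM; inactive = the rest.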

Assay: antimalarial activity against Dd2 strain (AID 2302);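 also: 0% = DMSO untreated growth and 100% = chloroquine plus artemisinin killed control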
Conditions: P. falciparum Dd2 in RBCs, LDH growth readout, 72 h; at 2 µM; stronger effect = higher value

| Structure (SMILES) | growth inhibition |
| --- | --- |
| COc1cc(C(=O)NC(SC2=NCCS2)C(Cl)(Cl)Cl)cc(OC)c1OC (stereo unspecified) | active: 50% |
